Columns and labels:
[1] = Apparent distribution coefficient (Log P), shake-flask method; type: physicochemical; details: n-octanol/distilled water, 48 h, 32 °C
Method: The classic shake-flask method was used to determine the apparent distribution coefficient (Log P). DCN and its ion-pair complexes were added into n-octanol, then mixed with equal volume distilled water. The samples were shaken for 48 h at 32 °C and centrifuged at 10,000 rpm for 10 min. After phase separation, the concentrations of each drug in both water and n-octanol layer were analyzed by HPLC.
(§1) The samples were determined by an LC-20A HPLC system (SHIMADZU, Kyoto, Japan). The separation was achieved on an InertSustain C18 column (4.6 mm × 250 mm, 5 µm, SHIMADZU, Kyoto, Japan) with the flow rate keeping at 1.0 mL/min, the column temperature maintaining at 40 °C and mobile phase consisting of methanol:water (25:75, v/v) with 0.4% phosphoric acid in water. Injection volume for each run was 50 μL, and detection wavelength was 254 nm.

[2] = Equilibrium solubility experiments; type: physicochemical; details: 48 h; for Equilibrium solubility PBS (pH 7.4): PBS pH 7.4, 32 °C; for Equilibrium solubility IPM: isopropyl myristate; for Equilibrium solubility IPM / Equilibrium solubility Water: 32 °C
Method: The obtained complexes were vibrated by ultrasonic for 10 min then continuously shaken in a water bath at 32 °C until equilibrium.
as §1

Compound	Log P [1]	Equilibrium solubility PBS (pH 7.4) [2]	Equilibrium solubility IPM [2]	Equilibrium solubility Water [2]
CC(=O)Oc1cccc2c1C(=O)c1c(OC(C)=O)cc(C(=O)O)cc1C2=O [DCN, Diacerein]	1.50 ± 0.01	–	–	–
CC(=O)Oc1cccc2c1C(=O)c1c(OC(C)=O)cc(C(=O)O)cc1C2=O.CCNCC [DCN-Dea]	–0.32 ± 0.007	18473.86 ± 91.09 μg/mL	410.37 ± 20.56 µg/mL	5453.36 ± 27.84 µg/mL
CC(=O)Oc1cccc2c1C(=O)c1c(OC(C)=O)cc(C(=O)O)cc1C2=O.OCCNCCO [DCN-Deta]	–0.22 ± 0.006	11105.50 ± 18.51 μg/mL	115.89 ± 16.60 µg/mL	3998.30 ± 12.50 µg/mL
CC(=O)Oc1cccc2c1C(=O)c1c(OC(C)=O)cc(C(=O)O)cc1C2=O.CCN(CC)CC [DCN-Tea]	–0.27 ± 0.006	–	–	–
CC(=O)Oc1cccc2c1C(=O)c1c(OC(C)=O)cc(C(=O)O)cc1C2=O.OCCN(CCO)CCO [DCN-Teta]	–0.13 ± 0.005	2514.24 ± 10.27 μg/mL	99.38 ± 12.80 µg/mL	6374.94 ± 14.60 µg/mL
CC(=O)Oc1cccc2c1C(=O)c1c(OC(C)=O)cc(C(=O)O)cc1C2=O.NCCO [DCN-eta]	–0.25 ± 0.005	–	–	–

From article PMC8843160, “Ion-pair compounds of diacerein for enhancing skin permeability in vitro: the compatibility–permeability relationship of counter ion and diacerein” (Drug Delivery, 2022)
